Data on 2 substances can be found in patent US20240261425A1, “CONJUGATE AND THE PREPARING METHOD AND USE THEREOF” (Nanjing University, priority 2021, published 2024).

The subject of the test is HER2+ cells MDA-MB-435. Briefly: Tumor cell killing test, HER2+ MDA-MB-435. The format is cell-based. The text has this: Cell viability was plotted as a percentage of untreated cells. Each measurement was taken in triplicate.

In general, IC50 refers to the concentration at which inhibition is half-maximal. A high value points to weaker potency in that assay.

For Herceptin-PhESF-PEG4-MMAE, the IC50 was 0.01466 µg/mL. The value for Herceptin-Mal-MMAE [reference compound] was 0.01203 µg/mL.
